Laboratory results as given in patent publication US11193004B2, “Phosphoric ester preparations with reduced hygroscopicity” (LANXESS Deutschland GmbH, priority 2013, dated 2021).

Experiment: physchem
Details: 25 °C, water

`CC(C)COP(=O)(OCC(C)C)OCC(C)C` [TiBP, Triisobutyl phosphate] showed a solubility of 270 µg/mL.
